From ChEMBL document CHEMBL1126787, “Ethyl substitution at the 7 position extends the half-life of 10-hydroxycamptothecin in the presence of human serum albumin” (J Med Chem, 1993)

Key:
Type in all cases: functional
Homo sapiens [1] = organism: Homo sapiens; assay: % of lactone form at equilibrium in HSA buffer at 37 C in the presence of human serum albumin
In short: (§1)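 Lactone-to-carboxylate hydrolysis of drug (1 μM total) in PBS (137 mM NaCl, 3 mM KCl, 8 mM Na2HPO4, 1 mM KH2PO4, pH 7.4) at 37 °C, with or without 20 mg/mL (290 μM) HSA. Monitored by HPLC over time. t1/2 and equilibrium % lactone fitted to decay profiles by nonlinear least squares. Average of at least three independent kinetic runs.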

Homo sapiens [2] = organism: Homo sapiens; assay: % of lactone form at equilibrium in PBS buffer at 37 C in the absence of human serum albumin; in short: as §1
Homo sapiens [3] = organism: Homo sapiens; assay: n value for the binding of carboxylate form to human serum albumin (n value = number of amino acid per binding site)
In short: (§2)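 Fluorescence lifetime titration of lactone or carboxylate form (20 μM total drug) with varying HSA. Phase-shift lifetimes measured with 30 MHz modulated excitation, emission taken through a 500-nm long-pass filter. Free fraction computed as (τ − τB)/(τF − τB). K and n obtained by nonlinear least-squares fit to K = [Db]/[Df][aa]^n, where aa is amino acid residues.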

Homo sapiens [4] = organism: Homo sapiens; assay: n value for the binding of lactone form to human serum albumin (n value = number of amino acid per binding site); in short: as §2

In the case of CCc1c2c(nc3ccc(O)cc13)-c1cc3c(c(=O)n1C2)COC(=O)[C@]3(O)CC [7-ETHYL-10-HYDROXYCAMPTOTHECIN], the Activity (Homo sapiens [1]) was 38%, the Activity (Homo sapiens [2]) was 13% and the Activity (Homo sapiens [3]) was 1.4. The Activity (Homo sapiens [4]) was 1.7.
